From patent publication US20250146007A1 (priority 2022, published 2025)

System: C. acnes wild type KPA171202
Type: cell-based, Cutibacterium acnes

| SMILES | growth of wild type C. acnes on FUDR plates | growth of wild type C. acnes on erythromycin plates |
| --- | --- | --- |
| O=c1[nH]c(=O)n([C@H]2C[C@H](O)[C@@H](CO)O2)cc1F [FUDR, 5-fluoro-2′-deoxyuridine] | sensitive; also recorded: could only grow in absence; also recorded: could not grow |  |
| CC[C@H]1OC(=O)[C@H](C)[C@@H](O[C@H]2C[C@@](C)(OC)[C@@H](O)[C@H](C)O2)[C@H](C)[C@@H](O[C@@H]2O[C@H](C)C[C@H](N(C)C)[C@H]2O)[C@](C)(O)C[C@@H](C)C(=O)[C@H](C)[C@@H](O)[C@]1(C)O [ery, erythromycin] |  | sensitive |

Entries after “also recorded” stand apart in the source; their conditions may differ.
